In paper PMC8421203 (Nucleic Acids Research, 2021):

Target: Zebrafish PHF14PZP (278–487) (zebrafish)
Test: ITC

**Q.** For “H3(1–15) K9me3 peptide (from UniProt P68431 2-16)”, which Kd is on record?
**A.** 76.6 µM
